Laboratory results as given in BindingDB's records for doi:10.1021/acsmedchemlett.8b00158 (Utah State University, 2018).

Experiment: Inhibition of recombinant human Cx26 expressed in Escherichia coli LB2003 assessed as reduction in cell growth measured after 18 hrs

Work on `NC[C@H]1O[C@H](O[C@H]2[C@H](O)[C@@H](O[C@@H]3O[C@H](COCc4ccccc4)[C@@H](OCc4ccccc4)[C@H](N)[C@H]3O)[C@H](N)C[C@@H]2N)[C@H](O)[C@@H](O)[C@@H]1O` yielded an IC50 of 7.6 µM.
